# Measurements taken from patent US8937058B2, “17-hydroxy-19-nor-21-carboxylic acid-steroid γ-lactone derivative, use thereof, and medicament containing the derivative” (priority 2007, dated 2015).
# By UniProt entry, the sequences of proteins in these tests, tags left out. Residues count along the entry.
# UniProt P06401, 679-913: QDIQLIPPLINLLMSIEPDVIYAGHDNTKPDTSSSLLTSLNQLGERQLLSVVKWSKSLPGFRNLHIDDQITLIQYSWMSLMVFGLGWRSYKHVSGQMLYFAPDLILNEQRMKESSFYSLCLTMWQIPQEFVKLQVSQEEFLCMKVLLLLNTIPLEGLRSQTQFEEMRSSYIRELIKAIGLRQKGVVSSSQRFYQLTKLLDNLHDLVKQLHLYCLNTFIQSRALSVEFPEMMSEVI
# UniProt P06401, whole entry, species assumed: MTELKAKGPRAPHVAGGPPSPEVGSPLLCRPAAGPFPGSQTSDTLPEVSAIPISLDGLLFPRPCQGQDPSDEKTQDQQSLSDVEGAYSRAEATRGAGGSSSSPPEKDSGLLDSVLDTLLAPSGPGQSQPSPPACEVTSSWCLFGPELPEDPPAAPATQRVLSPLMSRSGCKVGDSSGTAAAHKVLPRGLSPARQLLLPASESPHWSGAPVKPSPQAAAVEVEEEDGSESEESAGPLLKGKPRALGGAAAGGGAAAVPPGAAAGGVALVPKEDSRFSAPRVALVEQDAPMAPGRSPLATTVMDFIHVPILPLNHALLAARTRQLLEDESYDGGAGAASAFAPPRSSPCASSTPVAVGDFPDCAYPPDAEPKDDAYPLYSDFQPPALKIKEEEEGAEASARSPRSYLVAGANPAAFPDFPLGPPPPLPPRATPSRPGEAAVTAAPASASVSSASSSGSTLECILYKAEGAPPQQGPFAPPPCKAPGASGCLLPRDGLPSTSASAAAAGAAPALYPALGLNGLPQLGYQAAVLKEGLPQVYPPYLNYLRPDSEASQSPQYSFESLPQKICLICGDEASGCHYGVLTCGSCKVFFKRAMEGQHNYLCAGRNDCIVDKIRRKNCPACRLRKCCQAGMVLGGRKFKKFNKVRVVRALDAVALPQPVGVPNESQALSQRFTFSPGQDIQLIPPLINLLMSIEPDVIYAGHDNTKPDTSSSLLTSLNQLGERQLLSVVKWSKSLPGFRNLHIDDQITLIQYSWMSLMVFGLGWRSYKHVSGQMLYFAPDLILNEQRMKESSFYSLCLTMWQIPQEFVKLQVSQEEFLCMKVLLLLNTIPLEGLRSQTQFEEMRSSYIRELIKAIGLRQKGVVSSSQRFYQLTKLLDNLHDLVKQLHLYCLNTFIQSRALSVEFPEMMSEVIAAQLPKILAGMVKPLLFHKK
# UniProt P10275, whole entry, species assumed: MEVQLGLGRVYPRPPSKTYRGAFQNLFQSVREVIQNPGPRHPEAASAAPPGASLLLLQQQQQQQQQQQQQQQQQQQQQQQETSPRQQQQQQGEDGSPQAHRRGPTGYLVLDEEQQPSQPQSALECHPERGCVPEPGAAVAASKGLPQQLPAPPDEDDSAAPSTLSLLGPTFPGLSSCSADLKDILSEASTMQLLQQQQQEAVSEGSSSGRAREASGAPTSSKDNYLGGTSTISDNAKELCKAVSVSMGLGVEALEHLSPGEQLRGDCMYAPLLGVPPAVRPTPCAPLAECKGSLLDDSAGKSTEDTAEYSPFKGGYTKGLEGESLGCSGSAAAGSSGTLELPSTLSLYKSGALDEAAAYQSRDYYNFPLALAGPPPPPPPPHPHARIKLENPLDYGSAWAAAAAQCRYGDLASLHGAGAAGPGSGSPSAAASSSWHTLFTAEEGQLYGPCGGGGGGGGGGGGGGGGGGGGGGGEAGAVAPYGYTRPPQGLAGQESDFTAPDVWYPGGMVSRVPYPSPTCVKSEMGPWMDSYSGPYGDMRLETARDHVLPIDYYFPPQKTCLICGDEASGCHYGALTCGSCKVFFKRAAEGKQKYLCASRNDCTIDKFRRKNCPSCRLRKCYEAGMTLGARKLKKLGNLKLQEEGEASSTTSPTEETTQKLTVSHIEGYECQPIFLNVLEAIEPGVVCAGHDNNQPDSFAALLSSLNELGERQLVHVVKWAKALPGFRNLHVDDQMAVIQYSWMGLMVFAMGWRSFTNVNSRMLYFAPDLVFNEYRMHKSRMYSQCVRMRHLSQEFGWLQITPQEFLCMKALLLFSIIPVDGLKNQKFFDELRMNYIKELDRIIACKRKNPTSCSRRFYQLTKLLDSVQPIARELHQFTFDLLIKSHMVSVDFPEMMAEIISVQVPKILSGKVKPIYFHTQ
# How the values were obtained:
# [1] = molecular target: fusion protein from the PR-ligand-binding domain and a Gal4-transactivation domain (Homo sapiens (Human), UniProt P06401); assay: cell-based; settings: for Progesterone receptor Agonism efficacy: in-vitro transactivation, CHO K1 reporter cells
# Method: 4. Determination of Progestational Action by Means of Transactivation Tests:
# The test compounds were added eight hours later, and the cells were incubated with the compounds for 16 hours. The tests were carried out in triplicate. At the end of incubation the medium containing the effector was removed and replaced with lysis buffer. After luciferase assay substrate (Promega, #E1501) had been added, the 96-well plates were then put in a microplate luminometer (Pherastar, BMG Labtech), and the luminescence was measured. The IC50 values were evaluated using software for calculating dose-effect relations.
# progesterone receptor = progesterone receptor (Homo sapiens (Human), UniProt P06401); settings: for CF PR/CF MR: ratio of the competition factors CF(PR) and CF(MR)
# androgen receptor [2] = molecular target: T1, androgen receptor (Homo sapiens (Human), UniProt P10275); assay: cell-based
# Method: 6. Determination of Androgenic/Antiandrogenic Action by Means of Transactivation Tests:
# The androgenic/antiandrogenic action of the test substances was determined as for the transactivation tests described above.
# The following modifications were made: In this case reporter cell lines were used (PC3 cells) that express the androgen receptor, and a reporter construct that contains luciferase under the control of a steroid hormone-responsive promoter.
# For determination of the antiandrogenic efficacy, 0.05 nM R1881 was added to the cells, in order to achieve almost maximum stimulation of the reporter gene.
# androgen receptor [3] = molecular target: T1, androgen receptor
# Method: 3. Androgen Receptor Binding Test:
# The test was carried out as in 1., with the following modifications: cytosol from androgen receptor-expressing insect cells (Hi5) was used, and the reference substance was ^3H-testosterone.
structure (smiles),measurement,setting,value
"CC[C@]12CC[C@H]3[C@@H](CC4(CC4)C4=CC(=O)CC[C@@H]43)[C@@H]1CC[C@@]21C=CC(=O)O1 [Example 16, 6,6-(1,2-Ethanediyl)-17β-hydroxy-18-methyl-19-nor-17α-pregna-4,20(Z)-dien-3-one-21-carboxylic acid γ-lactone]",EC50,[1],0.0097 µM
same,Progesterone receptor Agonism efficacy,[1],38.4%
"C[C@]12CC[C@H]3[C@@H](C=CC4=CC(=O)CC[C@@H]43)[C@@H]1CC[C@@]21C=CC(=O)O1 (stereo in doubt) [Example 1, 17β-Hydroxy-19-nor-17α-pregna-4,6,20(Z)-trien-3-one-21-carboxylic acid γ-lactone]",Progesterone receptor (PR) Competition factor,"progesterone receptor; CF of 1 = affinity of progesterone, CF >1 lower affinity",11.41
same,CF PR/CF MR,progesterone receptor,0.35
same,IC50,"progesterone receptor; read-out: Progesterone receptor (PR) IC50, receptor binding, 3H-progesterone displacement",0.23 µM
"C[C@]12CC[C@H]3[C@@H](CC4(CC4)C4=CC(=O)CC[C@@H]43)[C@@H]1CC[C@@]21C=CC(=O)O1 [Example 18, 6,6-(1,2-Ethanediyl)-17β-hydroxy-19-nor-17α-pregna-4,20(Z)-dien-3-one-21-carboxylic acid γ-lactone]",EC50,[1],0.045 µM
same,Progesterone receptor Agonism efficacy,[1],127.0%
"C[C@@H]1CC2=CC(=O)CC[C@@H]2[C@H]2CC[C@@]3(C)[C@@H](CC[C@@]34C=CC(=O)O4)[C@@H]21 (stereo in doubt) [Example 2A, 17β-Hydroxy-7α-methyl-19-nor-17α-pregna-4,20(Z)-dien-3-one-21-carboxylic acid γ-lactone]",EC50,androgen receptor [2],0.016 µM
same,IC50,androgen receptor [2],1 µM
same,Androgen receptor Agonism efficacy,"androgen receptor [2]; in-vitro transactivation, PC3 cells",64.09%
same,Androgen receptor Antagonism efficacy,"androgen receptor [2]; in-vitro transactivation, PC3 cells, 0.05 nM R1881",5%
same,CF PR/CF MR,progesterone receptor,1.10
same,IC50,"androgen receptor [3]; read-out: Androgen receptor IC50, receptor binding, 3H-testosterone displacement",0.11 µM
same,Androgen receptor Competition factor,androgen receptor [3]; reference substance 3H-testosterone,4.8

# Read-outs that look alike come from different tables or passages of the source.
